Data published in patent US20100035311A1, “METHOD AND COMPOSITION FOR ENZYME STORAGE” (priority 2006, published 2010).

Target: T1, Arabidopsis thaliana allene oxide synthase CYP74A1 (AOS), recombinant, C-terminal 4×His-tag, lacking the 32 N-terminal amino acid chloroplast targeting sequence (Arabidopsis thaliana, UniProt Q96242)
T1 sequence (Q96242 with tags, fused parts or gaps): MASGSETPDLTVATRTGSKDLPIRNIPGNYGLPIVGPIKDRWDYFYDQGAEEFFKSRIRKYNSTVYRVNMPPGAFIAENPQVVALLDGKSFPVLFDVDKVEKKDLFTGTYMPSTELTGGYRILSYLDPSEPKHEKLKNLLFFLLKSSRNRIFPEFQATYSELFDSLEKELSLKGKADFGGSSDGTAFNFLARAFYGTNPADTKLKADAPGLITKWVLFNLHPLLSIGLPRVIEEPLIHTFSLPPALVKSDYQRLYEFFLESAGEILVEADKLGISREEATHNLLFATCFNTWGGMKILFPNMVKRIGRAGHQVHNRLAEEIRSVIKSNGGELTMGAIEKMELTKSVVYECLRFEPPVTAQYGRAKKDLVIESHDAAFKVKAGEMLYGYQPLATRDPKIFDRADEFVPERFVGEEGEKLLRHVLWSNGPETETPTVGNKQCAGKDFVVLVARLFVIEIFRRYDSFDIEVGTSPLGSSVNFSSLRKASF
Details: for kcat: pH 6.5, 25° C.; for Km, fold increase versus 13-HPOTE / kcat as % of kcat with 13-HPOTE: reactivated; for fold increase in kcat/Km after reactivation: reactivated with Emulphogene micelles vs detergent-free

[1] = Reactivated with 50 μM Emulphogene micelle

SMILES | kcat/Km (Detergent-free) | kcat (Detergent-free) | Substrate specificity (% 13-HPOTE), from kcat/Km [1] | kcat/Km [1] | kcat [1] | Km, fold increase versus 13-HPOTE | kcat as % of kcat with 13-HPOTE | Substrate specificity (% 13-HPOTE), from kcat/Km (Detergent-free) | fold decrease in affinity (Km higher) after reactivation (reactivated vs detergent-free) | kcat, fold increase after reactivation (reactivated vs detergent-free) | fold increase in kcat/Km after reactivation | fold increase in kcat/Km after reactivation (listed as 13-HPOTE) | kcat/Km (with detergent micelles)
CCCCC/C=C\C=C\[C@H](CCCCCCCC(=O)O)OO [9α-HPOD] | 800000 M⁻¹ s⁻¹ | 4.9 ± 0.4 s⁻¹ | 0.3% | 200000 M⁻¹ s⁻¹ | 12 ± 1 s⁻¹ | 6 fold | 2% | – | – | – | – | – | –
CC/C=C\C/C=C\C=C\[C@H](CCCCCCCC(=O)O)OO [9α-HPOT, 9-S-hydroperoxy-10E,12Z,15Z-octadecatrienoic acid] | 300000 M⁻¹ s⁻¹ | 3.2 ± 0.1 s⁻¹ | 0.3% | 200000 M⁻¹ s⁻¹ | 11 ± 1 s⁻¹ | 6 fold | 2% | 25% | – | – | – | – | –
CCCCC[C@@H](/C=C/C=C\CCCCCCCC(=O)O)OO [13α-HPOD, 13-S-hydroperoxyoctadeca-9Z, 11 E-dienoic acid] | 900000 M⁻¹ s⁻¹ | 4.2 ± 0.2 s⁻¹ | 14% | 8.1e+06 M⁻¹ s⁻¹ | 226 ± 9 s⁻¹ | – | – | – | ~6 fold | 54 fold | 10 fold | – | –
CC/C=C\C[C@@H](/C=C/C=C\CCCCCCCC(=O)O)OO [13α-HPOT, 13-S-hydroperoxy-9Z,11E,15Z-octadecatrienoic acid] | 1.2e+06 M⁻¹ s⁻¹ | 3.3 ± 0.1 s⁻¹ | 100% | 5.87e+07 M⁻¹ s⁻¹ | 528 ± 15 s⁻¹ | – | – | 100% | – | 160 fold | – | 50 fold and 48 fold | up to 5.9×10^7 M^−1.s^−1

Several values for one entry are separate records, joined by “and”; a condition that tells them apart may be missing. Identical values can stand only once. Like-named read-outs stand apart in the source and are kept apart here.
